# Measurements from patent US8653023B1, “Dual beneficial effect of dopamine enhancing and neuroprotective actions of PKC delta inhibitors for treatment of Parkinson's disease” (Iowa State University Research Foundation, Inc., priority 2006, dated 2014).
# Test system: tyrosine hydroxylase (TH)
# Experiment: TH activity (DOPA levels after NSD-1015) in PC12 cells
# Type: cell-based
# Conditions: 10 μM rottlerin 3 hr, 2 mM NSD-1015
# Protocol: PC12 cells, differentiated N27 dopaminergic cells and primary mesencephalic neurons were exposed to 1-10 μM rottlerin for the duration of the experiment. DMSO (0.01%) was used as vehicle control. PKCδ-DN- and Lac Z-expressing N27 cells were only treated with 0.01% DMSO. […] Untreated or vehicle treated cells were used as control samples.
compound,measurement,value
CC(=O)c1c(O)c(C)c(O)c(Cc2c(O)c3c(c(C(=O)/C=C/c4ccccc4)c2O)OC(C)(C)C=C3)c1O [rottlerin],TH activity,2067±43.83 pg DOPA/10^6 cells/hr
